US6177409A, “Method for the site specific synthesis of novel 3-hydroxypyridin-4(1H)ons derivatives from aminomonosaccharides or aminoitols, products obtained by this method and their applications” (priority 1996, dated 2001)

Columns and labels:
mice = assay: in vivo; details: mouse
Description: (§1) The samples are put in a solution either in water or in a mixture of water-DMSO (3:2; v/v) so as to obtain solutions of varying concentrations,either lower than or equal to 130 g·L^-1; the volumes injected are calculated on the basis of 0.2 mL for a mouse body weight of 20 g.
(§2) The toxicity is evaluated starting from aqueous solutions, either buffered or not with NaH2 PO4 or else with Na2 HPO4, or else after addition of a stoichiometric quantity of NaHCO3.
(§3) The 2-methyl-3-hydroxypyridine-4(1H)-one derivatives of glycerol (14), of xylitol (17), of mono-acetone xylose (12) and of solketal (11) were injected by I. V. route.
(§4) The 2-methyl-3-hydroxypyridine-4(1H)-one compound of diacetone xylitol (10) was injected by I. P. route.

in vivo = details: mouse, iv, LD50 ± SD
Description: as §1, §2, §3, §4

SMILES	Mortality (number of mice) (mice; ip, 650 mg/kg, pH 7)	Mortality times (mice; ip, 650 mg/kg, pH 7)	Mortality (number of mice) (mice; iv, 325 mg/kg, pH 2.5)	Mortality (number of mice) (mice; iv, 525 mg/kg, pH 4)	Mortality (number of mice) (mice; iv, 650 mg/kg, pH 2.1)	Mortality times (mice; iv, 650 mg/kg, pH 2.1)	Mortality (number of mice) (mice; iv, 650 mg/kg, pH 3)	Mortality times (mice; iv, 650 mg/kg, pH 3)	Mortality (number of mice) (mice; iv, 650 mg/kg, pH 4)	Mortality (number of mice) (mice; iv, 850 mg/kg, pH 4)	Mortality (number of mice) (mice; iv, 1300 mg/kg, pH 2)	Mortality times (mice; iv, 1300 mg/kg, pH 2)	Mortality (number of mice) (mice; iv, 1300 mg/kg, pH 4)	LD50 ± SD (mice; iv)	LD50 (in vivo)
Cc1c(O)c(=O)ccn1C [Compound L1, 1.2-dimethyl-3-hydroxypyridine-4(1H)-one, reference compound]	5	5 h 45, 6 h, 5 h, 4 h, 5 h 45	0	0	5	54 sec., 30 sec., 20 sec., 25 sec., 26 sec.	3	50 sec., 30 sec., 35 sec.	2	5	3	20 sec., 10 sec., 10 sec.	5		
Cc1c(O)c(=O)ccn1C [L1 chlorohydrate, chlorohydrate of 1.2-dimethyl-3-hydroxypyridine-4(1H)-one, reference compound]														868 ± 86 mg/kg	783 ± 50 mg/kg
